Test system: HaCaT cells
Assay: Cytotoxicity, MTT assay
Type: cell-based, human
Conditions: 1.56 µM, 24 h
Description: We used the MTT assay to evaluate the toxicity of the peptides toward human skin epithelial cells (HaCaT) as previously described. Briefly, HaCaT cells were seeded at a density of 2 × 10^4 cells per well in 96-well microtiter plates in Dulbecco’s modified Eagle’s medium (DMEM) containing 10% foetal bovine serum (FBS) at 37 °C under 5% CO2 atmosphere. The next day, peptides were added to each well at various final concentrations (higher concentration of 200 µM). After 24 h incubation, culture supernatants were removed. 0.5 mg/mL MTT was added to each well, and the plates were incubated for 4 h at 37 °C. The medium was replaced by dimethyl sulfoxide (DMSO) to dissolve the formazan crystals formed in the wells. The absorbance at 570 nm was measured using a Versa-Max microplate ELISA reader (Molecular Devices). The viability rate was calculated using the following formula: Cell viability (%) = (absorbance of treated sample)/(absorbance of control) × 100.

CC[C@H](C)[C@H](NC(=O)CN)C(=O)NCC(=O)N[C@@H](C)C(=O)N[C@H](C(=O)N[C@@H](CC(C)C)C(=O)N[C@@H](CCCCN)C(=O)N[C@H](C(=O)N[C@@H](CC(C)C)C(=O)N[C@H](C(=O)N[C@H](C(=O)NCC(=O)N[C@@H](CC(C)C)C(=O)N1CCC[C@H]1C(=O)N[C@@H](C)C(=O)N[C@@H](CC(C)C)C(=O)N[C@H](C(=O)N[C@@H](CO)C(=O)N[C@@H](Cc1c[nH]c2ccccc12)C(=O)N[C@H](C(=O)N[C@@H](CCCCN)C(=O)N[C@@H](CCCNC(=N)N)C(=O)N[C@@H](CCCCN)C(=O)N[C@@H](CCCNC(=N)N)C(=O)N[C@@H](CCC(N)=O)C(=O)N[C@@H](CCC(N)=O)C(N)=O)[C@@H](C)CC)[C@@H](C)CC)[C@@H](C)O)[C@@H](C)O)C(C)C)C(C)C [Melittin, reference compound]
survival rate of HaCaT cells: 11.29%

Source: PMC5789083, “Mechanisms driving the antibacterial and antibiofilm properties of Hp1404 and its analogue peptides against multidrug-resistant Pseudomonas aeruginosa” (Scientific Reports, 2018)
